Target: IRAK4 protein (Homo sapiens, UniProt Q9NWZ3)
Assay: IRAK4 Degradation Assay in THP-1 Cells (Western Blot)
Assay type: cell-based
Details: 24 hours, 0.0128 to 1000 nM, IRAK4 protein level by Western Blot, tested form: free base

Amino acid sequences for entries named in this document (tags omitted).
UniProt Q9NWZ3, whole entry: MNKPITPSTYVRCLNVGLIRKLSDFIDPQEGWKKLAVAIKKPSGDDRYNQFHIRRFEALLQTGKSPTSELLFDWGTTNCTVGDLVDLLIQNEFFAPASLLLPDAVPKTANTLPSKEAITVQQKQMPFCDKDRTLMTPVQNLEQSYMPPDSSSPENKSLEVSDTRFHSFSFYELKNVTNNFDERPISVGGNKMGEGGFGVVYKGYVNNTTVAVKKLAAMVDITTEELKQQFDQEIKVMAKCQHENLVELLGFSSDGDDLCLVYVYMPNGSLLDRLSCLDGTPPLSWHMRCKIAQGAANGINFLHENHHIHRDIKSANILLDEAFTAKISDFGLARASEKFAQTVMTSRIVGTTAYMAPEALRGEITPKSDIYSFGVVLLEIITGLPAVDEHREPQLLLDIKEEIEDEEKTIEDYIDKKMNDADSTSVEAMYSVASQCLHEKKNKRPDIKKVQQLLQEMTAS

DC50: 3.3 nM | Dmax%: 88.1%
Structure (SMILES): Cn1c(=O)n(C2CCC(=O)NC2=O)c2cccc(C#CCOC3CCC(CN4CCC5(Cc6cc(NC(=O)c7coc8cccnc78)c(N7CCC(CO)CC7)cc6O5)C4)CC3)c21 (centres unmarked)
